Columns and labels:
[1] = molecular target: Sodium channel protein type 1 subunit alpha (Homo sapiens, UniProt P35498); experiment: Modulator activity at human Nav1.1 expressed in Xenopus laevis oocytes assessed as elicitation in sodium current measured after 1 to 4 days by two-electrode voltage clamp assay; format: cell-based, Oocyte
Procedure, shortened: (§1)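 Channel cRNA, with auxiliary subunits rβ1, hβ1 or TipE, transcribed from linearized plasmids; 50 nL of 1 ng/nL injected into stage V–VI X. laevis oocytes, kept in 96 mM NaCl, 2 mM KCl, 1.8 mM CaCl2, 2 mM MgCl2, 5 mM HEPES pH 7.4 with gentamycin. Two-electrode voltage clamp at 18–22 °C in same bath solution; 3 M KCl electrodes of 0.8–1.5 MΩ; currents filtered at 1 kHz, sampled at 20 kHz. EC50 from Hill equation fit.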

[2] = Modulator activity at german cockroach Nav1 expressed in Xenopus laevis oocytes assessed as elicitation in sodium current measured after 1 to 4 days by two-electrode voltage clamp assay; format: cell-based; conditions: Blattella germanica, Oocyte; procedure, shortened: as §1
[3] = molecular target: Sodium channel protein type 2 subunit alpha (Rattus norvegicus, UniProt P04775); experiment: Modulator activity at rat Nav1.2 expressed in Xenopus laevis oocytes assessed as elicitation in sodium current measured after 1 to 4 days by two-electrode voltage clamp assay; format: cell-based, Oocyte; procedure, shortened: as §1
[4] = molecular target: Sodium channel protein type 9 subunit alpha (Homo sapiens, UniProt Q15858); experiment: Modulator activity at human Nav1.7 expressed in Xenopus laevis oocytes assessed as elicitation in sodium current measured after 1 to 4 days by two-electrode voltage clamp assay; format: cell-based, Oocyte; procedure, shortened: as §1
[5] = molecular target: Sodium channel protein type 5 subunit alpha (Homo sapiens, UniProt Q14524); experiment: Modulator activity at human Nav1.5 expressed in Xenopus laevis oocytes assessed as elicitation in sodium current measured after 1 to 4 days by two-electrode voltage clamp assay; format: cell-based, Oocyte; procedure, shortened: as §1
[6] = molecular target: Sodium channel protein type 10 subunit alpha (Rattus norvegicus, UniProt Q62968); experiment: Modulator activity at rat Nav1.8 expressed in Xenopus laevis oocytes assessed as elicitation in sodium current measured after 1 to 4 days by two-electrode voltage clamp assay; format: cell-based; conditions: oocyte
Procedure, shortened: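 Channel cRNA transcribed from linearized plasmid; 50 nL at 1 ng/nL injected into stage V–VI oocytes. Oocytes held in 96 mM NaCl, 2 mM KCl, 1.8 mM CaCl2, 2 mM MgCl2, 5 mM HEPES pH 7.4 with gentamycin. TEVC at 18–22 °C in the same solution, electrodes 3 M KCl, 0.8–1.5 MΩ. Currents filtered 1 kHz, sampled 20 kHz. EC50 from Hill equation fit.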

[7] = molecular target: Sodium channel protein type 3 subunit alpha (Rattus norvegicus, UniProt P08104); experiment: Modulator activity at rat Nav1.3 expressed in Xenopus laevis oocytes assessed as elicitation in sodium current measured after 1 to 4 days by two-electrode voltage clamp assay; format: cell-based, Oocyte; procedure, shortened: as §1
[8] = Toxicity in Artemia salina assessed as mortality incubated for 24 hrs in dark by microwell assay; format: organism-based
Procedure, shortened: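 Nauplii hatched from cysts in aerated artificial seawater (33 g/L), harvested at 24 h, RT. Peptide at 0.003–300 μM in water, in duplicate wells with water control, plus 10–15 nauplii in salt water. Dead and immobilized nauplii counted under a microscope, then the rest killed with MeOH and all counted. % dead or immobilized per well; EC50 by nonlinear regression.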

[9] = molecular target: Sodium channel protein type 8 subunit alpha (Mus musculus, UniProt Q9WTU3); experiment: Modulator activity at mouse Nav1.6 expressed in Xenopus laevis oocytes assessed as elicitation in sodium current measured after 1 to 4 days by two-electrode voltage clamp assay; format: cell-based, Oocyte; procedure, shortened: as §1
[10] = molecular target: Sodium channel protein type 4 subunit alpha (Rattus norvegicus, UniProt P15390); experiment: Modulator activity at rat Nav1.4 expressed in Xenopus laevis oocytes assessed as elicitation in sodium current measured after 1 to 4 days by two-electrode voltage clamp assay; format: cell-based, Oocyte; procedure, shortened: as §1

In the case of `CC[C@H](C)[C@@H]1NC(=O)[C@@H](NC(=O)CN)CSSC[C@@H]2NC(=O)[C@@H]3CSSC[C@@H](C(=O)N[C@@H](CC(N)=O)C(=O)N4C[C@@H](O)C[C@H]4C(=O)N4C[C@@H](O)C[C@H]4C(=O)N[C@@H](CC(N)=O)C(=O)N[C@@H](CCC(N)=O)C(=O)O)NC(=O)[C@H](CCCCN)NC(=O)[C@H](Cc4ccccc4)NC(=O)[C@H](CC(N)=O)NC(=O)[C@H](Cc4c[nH]c5ccccc45)NC(=O)CNC(=O)[C@H](CSSC[C@H](NC(=O)[C@H](Cc4ccccc4)NC(=O)[C@H](CO)NC(=O)CNC(=O)[C@H]([C@@H](C)O)NC(=O)[C@H](C)NC1=O)C(=O)N[C@@H]([C@@H](C)O)C(=O)N[C@@H](CC(C)C)C(=O)N[C@@H](CO)C(=O)N[C@@H](CCCCN)C(=O)NCC(=O)N3)NC(=O)[C@H](CC(N)=O)NC(=O)[C@H](CCCCN)NC(=O)[C@H]([C@@H](C)O)NC2=O`, the EC50 [1] is reported as 0.124 µM, the EC50 [2] is reported as 0.0086 µM and the EC50 [3] is reported as 0.36 µM. For the same compound, the EC50 [4] was 0.0765 µM, the EC50 [5] was 0.138 µM and the EC50 [6] was “Not Active”. For the same compound, the EC50 [7] was 0.135 µM, the EC50 at 24 h [8] was 0.3 µM and the EC50 [9] was 0.24 µM. It also gave an EC50 [10] of 0.145 µM.
